Values belong to the compound of their own block, whether it stands above or below them.
Tests used:
Cannabinoid receptor 2 [1] = target: T1, Cannabinoid receptor 2 (Homo sapiens, UniProt P34972); assay: Binding affinity to cannabinoid CB2 receptor
Cannabinoid receptor 2 [2] = target: T1, Cannabinoid receptor 2; assay: Displacement of [3H]CP-55940 from human cannabinoid CB2 receptor expressed in CHO cells; assay type: cell-based
[3] = target: Prostaglandin E2 receptor EP2 subtype (Homo sapiens, UniProt P43116); assay: Binding affinity to EP2 receptor

Chains of the proteins cited; added tags and fusions are not shown. Lines headed by an entry give the natural chain unless they say otherwise; changes in a name come on top.
UniProt P34972, whole entry: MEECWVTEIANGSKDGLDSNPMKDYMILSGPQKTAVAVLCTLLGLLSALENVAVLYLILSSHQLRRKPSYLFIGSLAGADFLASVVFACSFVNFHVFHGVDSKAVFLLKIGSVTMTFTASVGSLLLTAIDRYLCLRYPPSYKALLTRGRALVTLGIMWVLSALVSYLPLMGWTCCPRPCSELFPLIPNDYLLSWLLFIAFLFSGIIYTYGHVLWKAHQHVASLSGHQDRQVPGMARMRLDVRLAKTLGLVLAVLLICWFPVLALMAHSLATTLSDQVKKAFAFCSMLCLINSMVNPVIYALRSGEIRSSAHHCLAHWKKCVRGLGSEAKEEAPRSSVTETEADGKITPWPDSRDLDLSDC
UniProt P43116: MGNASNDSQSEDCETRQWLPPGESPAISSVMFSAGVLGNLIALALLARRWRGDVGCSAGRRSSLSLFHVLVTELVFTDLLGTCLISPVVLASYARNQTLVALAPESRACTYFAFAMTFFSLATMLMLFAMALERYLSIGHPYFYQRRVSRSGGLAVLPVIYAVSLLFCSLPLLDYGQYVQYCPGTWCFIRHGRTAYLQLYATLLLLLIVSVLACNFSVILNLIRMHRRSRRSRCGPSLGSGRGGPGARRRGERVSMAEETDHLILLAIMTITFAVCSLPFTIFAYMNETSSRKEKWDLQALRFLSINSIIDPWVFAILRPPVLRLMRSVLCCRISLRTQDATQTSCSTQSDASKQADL

Ki (Cannabinoid receptor 2 [1]): 2.29 µM
SMILES: Cc1c(C(=O)NN2CCCCC2)nn(-c2ccc(Cl)cc2Cl)c1-c1ccc(I)cc1

SMILES: C=C(C)[C@@H]1CCC(C)=C[C@H]1c1c(O)cc(CCCCC)cc1O [CANNABIDIOL]
Ki (Cannabinoid receptor 2 [2]): 10 µM

IC50 [3]: 0.0377 µM
SMILES: CCCCC[C@H](O)/C=C/[C@H]1[C@H](O)CC(=O)[C@@H]1C/C=C\CCCC(=O)O [DINOPROSTONE]

From ChEMBL document CHEMBL1155461, “Emerging targets in osteoporosis disease modification” (J Med Chem, 2010)
